# Values of other authors in paper PMC10452847 (Cancers, 2023).
# Tested on: FGFR2 fusion/rearrangement-positive intrahepatic cholangiocarcinoma
# Conditions: cited from earlier work
smiles,measurement,value
C=CC(=O)N1CC[C@H](n2nc(C#Cc3cc(OC)cc(OC)c3)c3c(N)ncnc32)C1 [futibatinib],ORR,42%
